Binding of CDR-mutated scFvs to a peptide of the spike HR2 region

Target: peptide PDVDLGDISGINAS, taken from heptad repeat 2 (HR2) of SARS-CoV-2 spike.

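The parent was found by panning a naive human phage display library on the peptide. These sequences belong to a second round, designed from the earlier measurements on random variants of the parent. Group labels follow the data file (Ctrl: baseline library sampled from a position-specific scoring matrix, with some repeated check sequences; En: ensemble of fine-tuned language models; GP: Gaussian process model; HC: hill climbing; Gen: genetic algorithm; Gibbs: Gibbs sampling; a sequence that several methods proposed may carry one label only). Affinity was read by AlphaSeq, a pooled yeast mating assay with surface-displayed partners. The frequency of each diploid, read from paired DNA barcodes, reflects how well the two displayed proteins bind. A regression on co-assayed BCL2-family reference pairs converts the normalised counts of each replicate to an apparent Kd. Mating was done six times.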

The variants keep the heavy chain, the linker and the frameworks of Ab-14 (scFv order VH, three GGGGS repeats, VL).
VH: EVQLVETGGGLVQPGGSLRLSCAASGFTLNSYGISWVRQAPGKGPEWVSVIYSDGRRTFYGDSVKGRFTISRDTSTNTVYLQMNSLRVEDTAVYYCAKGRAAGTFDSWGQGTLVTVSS
VL: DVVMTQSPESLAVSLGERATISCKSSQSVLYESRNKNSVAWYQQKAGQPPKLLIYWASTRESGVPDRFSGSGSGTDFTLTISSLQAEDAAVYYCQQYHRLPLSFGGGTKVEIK

Each variant is given by its three light chain CDRs, as the data file delimits them; those of the parent are KSSQSVLYESRNKNSVA, WASTRES, QQYHRLPLS.
Variants here have more than six changes.
Values are log10 of the apparent Kd in nM; lower means stronger binding.
Averages over replicates are reported, and they cover detected replicates only.
"nd" means that the variant was in the library but no mating with the target was seen in any replicate; the authors take this as a sign of poor binding, and no number exists.
Entries are sorted by rising average, undetected variants last.
The range of this assay differs from that of the first round, and the authors advise against merging the two.
Three control strains display no target. For all light chain designs, 4% of the pairings with them gave a signal, with a median of 2.64 and one signal in twenty below 1.59, so weak values seen in few replicates may be background. Also given: how often the same scFv was detected with the empty control strains.
The authors averaged sequences with at least three values out of six and counted those with two or fewer as poor binders.

With KLQQSELYEERNSNSVA, SASLRES, QQYHRLPLS [GP_Gibbs] the result was -0.35 (6 of 6 replicates; controls 0 of 18).
With KIIQSGPYESRNKNSVA, NASTRSP, QQYHRLPLS [GP_Gibbs] the result was -0.31 (6 of 6 replicates; controls 0 of 18).
With KLSQSTLYEQRNTNSVA, QASQRLS, QQYHRLPLS [GP_Gibbs] the result was -0.21 (6 of 6 replicates; controls 0 of 18).
With NISYEQALSTNSVNNVA, QASVRAP, QYYQRLPLV [En_Gibbs] the result was 0.04 (6 of 6 replicates; controls 1 of 18).
With KLMTSHLYESRMANNVA, AASTREE, QQYHRLPLS [GP_Gibbs] the result was 0.06 (6 of 6 replicates; controls 0 of 18).
With HLEQSEEYESRMKNSVA, NASTRLS, QQYHRLPLS [GP_Gibbs] the result was 0.10 (6 of 6 replicates; controls 0 of 18).
With KIGMTLNMLMHKKNNVA, DLVERAN, QQYFRLPLS [En_Gen] the result was 0.11 (6 of 6 replicates; controls 0 of 18).
With KISSMVKVGMTHGNSIA, EEATRSD, QQYHRLPLS [En_Gen] the result was 0.22 (6 of 6 replicates; controls 0 of 18).
With KLYVSTMLESHNKNSIA, DLSTRGN, QQYDRLPLS [En_HC] the result was 0.22 (6 of 6 replicates; controls 1 of 18).
With KSSQSVLYEDGNGNSVA, HASVRED, QQYHRLPLM [GP_Gibbs] the result was 0.26 (6 of 6 replicates; controls 1 of 18).
With KLSMSWPLLWRNHNSVA, SASTRES, QQYHRLPLS [GP_Gibbs] the result was 0.27 (6 of 6 replicates; controls 1 of 18).
With KISINQMHYNGMRSAIA, NTNQAAM, QQYFHLPLM [En_Gibbs] the result was 0.33 (6 of 6 replicates; controls 1 of 18).
With KLSMSWPLLWRNHNSVA, SASTREQ, QQYHRLPLS [GP_Gibbs] the result was 0.34 (6 of 6 replicates; controls 2 of 18).
With VLPDHELMLESQIHSIA, NETKRME, QQYSRLPLV [En_Gibbs] the result was 0.35 (6 of 6 replicates; controls 2 of 18).
With TISQSWFIESRKKNNVA, EMTTREN, QDYDRLPLS [En_HC] the result was 0.38 (6 of 6 replicates; controls 1 of 18).
With GVDHTMESGKQAPNSIA, NAEQKTI, QQYQRLPLS [En_Gibbs] the result was 0.52 (6 of 6 replicates; controls 1 of 18).
With VMFGGLNFDNIEHQAIA, NVDVREK, QQYHRLPLQ [En_Gibbs] the result was 0.59 (6 of 6 replicates; controls 1 of 18).
With KFGQMVLTGAYVSNSVA, QMSTRVN, QQYHRLPLI [En_HC] the result was 0.59 (6 of 6 replicates; controls 0 of 18).
With KHSLSVELESRLKNSVA, EASTRCE, QQYHRLPLS [GP_Gibbs] the result was 0.61 (6 of 6 replicates; controls 1 of 18).
With NLKEMEGTNQTKHGNIA, SVDQRMT, QQYFRLPLA [En_Gibbs] the result was 0.61 (6 of 6 replicates; controls 0 of 18).
With HFSQETMEFMGQNKAIA, EVTTTML, QQYARLPFI [En_Gibbs] the result was 0.62 (1 of 6 replicates; controls 0 of 18).
With KIMQSLNYETFNKNSVA, GQETRER, QSYHRLPLS [En_HC] the result was 0.63 (6 of 6 replicates; controls 0 of 18).
With MISMEEAPAGQQESSIA, HGGTKAE, QQYNRLPLC [En_Gibbs] the result was 0.66 (6 of 6 replicates; controls 2 of 18).
With IVNGVLDHLSKNTNNVA, ETSTRES, QQYDRLPLQ [En_Gen] the result was 0.67 (6 of 6 replicates; controls 1 of 18).
With KLQFSCLYESRNKNSVA, DASYRLS, QQYHRLPLS [GP_Gibbs] the result was 0.76 (6 of 6 replicates; controls 1 of 18).
With HLGDSVKMESRNTNSVA, DNSTRGS, QQYDRLPLS [En_HC] the result was 0.76 (6 of 6 replicates; controls 0 of 18).
With TISQSALMTGLNRNSVA, QAEERLE, QQYHRLPLS [En_HC] the result was 0.77 (6 of 6 replicates; controls 0 of 18).
With KISQSVLMESLMKNSVA, HASTRIW, QQYHRLPLS [GP_Gibbs] the result was 0.90 (6 of 6 replicates; controls 1 of 18).
With GMSDSMTETIADANHIA, DAEARDV, QQYSRLPLI [En_Gibbs] the result was 0.91 (6 of 6 replicates; controls 1 of 18).
With TIGQTLMSGVRNRSNVA, EVSERLN, QQYDRLPLF [En_Gen] the result was 1.01 (6 of 6 replicates; controls 2 of 18).
With KWSNSVMLESRNWNAVA, EASTRES, QDYHRLPLS [GP_Gibbs] the result was 1.04 (6 of 6 replicates; controls 1 of 18).
With IISEVMNTLTRHGNNVA, DLAERED, QQYFRLPLS [En_Gen] the result was 1.24 (6 of 6 replicates; controls 0 of 18).
With TIDDEMPSHGLKWNSIA, GVATVLQ, QQYDRLPLS [En_Gibbs] the result was 1.42 (6 of 6 replicates; controls 0 of 18).
With TISQSWFIESHNKNNVA, EMTTREN, QDYDRLPLS [En_HC] the result was 1.60 (6 of 6 replicates; controls 0 of 18).
With MLKMENEEFNFDKNSVA, EAVEKES, QQYHRLPII [En_Gibbs] the result was 1.86 (5 of 6 replicates; controls 0 of 18).
With MVNTNLVHQAQRDNNIA, EADMVAA, QDYDRLPLI [En_Gibbs] the result was 2.38 (6 of 6 replicates; controls 1 of 18).
With KSSQSELSESDDKNSVA, SASTRES, QQPHRLPVS [Ctrl] the result was nd (0 of 6 replicates; controls 2 of 18).

The measurements come from Li et al. 2023 (doi:10.1038/s41467-023-39022-2) through the FLAb antibody collection.